Results: ChEMBL document CHEMBL1144897, “A potent, selective inhibitor of matrix metalloproteinase-3 for the topical treatment of chronic dermal ulcers” (J Med Chem, 2003)
pIC50: −log10 of the molar value.

Molecular target: T1, Interstitial collagenase (Homo sapiens, UniProt P03956)
T1 sequence (P03956 whole entry): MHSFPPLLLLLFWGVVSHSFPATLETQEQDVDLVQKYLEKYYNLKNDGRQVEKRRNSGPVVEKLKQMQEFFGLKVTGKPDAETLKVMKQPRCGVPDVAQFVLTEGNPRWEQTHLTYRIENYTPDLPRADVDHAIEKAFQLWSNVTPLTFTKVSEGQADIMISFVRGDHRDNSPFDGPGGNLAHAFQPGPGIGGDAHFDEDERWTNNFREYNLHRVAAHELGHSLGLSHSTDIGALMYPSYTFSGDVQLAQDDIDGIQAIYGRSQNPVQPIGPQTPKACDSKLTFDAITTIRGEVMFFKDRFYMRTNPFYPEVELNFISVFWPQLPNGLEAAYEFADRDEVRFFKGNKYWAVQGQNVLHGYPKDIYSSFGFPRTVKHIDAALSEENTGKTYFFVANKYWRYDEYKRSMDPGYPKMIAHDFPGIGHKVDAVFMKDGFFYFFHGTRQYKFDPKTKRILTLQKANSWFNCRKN
Test: Inhibition of human Matrix metalloprotease-1 (MMP-1)

SMILES: CNC(=O)[C@H](Cc1ccc(OC)cc1)NC(=O)[C@@H](CC(=O)NO)CC(C)C
- pIC50: 7.70
